“Also recorded” adds a separate entry of the source.
System: male C57 BL mice
Experiment: Mouse model of oral acetaminophen (APAP) overdose hepatotoxicity/lethality
Assay type: in vivo
Protocol: FIG. 5. Effects of i.p. 2-ACP (2.40 mmol/kg) or equimolar N-acetylcysteine (NAC) on oral acetaminophen (APAP) (500 mg/kg)-induced hepatotoxicity in mice (n=15-30/group). Kaplan-Meier survival curves illustrate the cumulative percent daily lethality in the APAP alone, APAP/NAC and APAP/ACP groups. Joining line indicates statistically significant differences in treatment groups at ***p<0.001 level of significance.
FIG. 6A-6B. (A). Dose-dependency of i.p. 2-ACP (0.80-2.40 mmol/kg) on oral acetaminophen (AAP or APAP) (500 mg/kg)-induced lethality. (B). Dose-dependency of i.p. NAC (2.40-7.20 mmol/kg) on oral APAP-induced lethality. Kaplan-Meier survival curves illustrate the cumulative percent daily lethality in the APAP alone, APAP/NAC and APAP/ACP groups (n=15 mice/group). Joining line indicates statistically significant differences in treatment groups at ***p<0.001 and **p<0.01 levels of significance.
FIG. 7A-7B. Temporal-dependency of i.p. 2-ACP (A) (2.40 mmol/kg) or equimolar NAC (B) on oral APAP (500 mg/kg)-induced lethality. Hepatoprotectants were administered 20 mins before (−20), 20 mins after (+20) or 60 mins after (+60) APAP intoxication. Kaplan-Meier survival curves illustrate the cumulative percent daily lethality in the APAP alone, APAP/NAC and APAP/ACP groups (n=15 mice/group). Joining line indicates statistically significant differences in treatment groups at **p<0.01 and *p<0.05 levels of significance.
To test this premise, experimental groups (n=15-30/group) of fasted male C57 BL mice were administered equimolar i.p. doses of either 2-ACP or NAC (PEG400/PBS vehicle) at 20 minutes prior to acute oral (gavage) overdose of AAP (500 mg/kg)^14. A separate group received the PEG400 vehicle 20 mins prior to AAP. […] Vehicle control mice (n=10) received sequential injections of PEG400 (i.p. followed by oral). At several times post-AAP administration (2, 6, 24, 48 and 168 hrs), groups of mice were anesthetized in a carbon dioxide chamber and heparinized blood samples were collected. Samples were centrifuged and resulting serum was retained for analyses (see below). Livers were also excised, weighed and tissue samples were collected for histopathological evaluation. Remaining tissue was snap frozen in liquid nitrogen. Hepatotoxicity was determined by quantification of serum alanine aminotransferase (ALT) and aspartate aminotransferase (AST) using colorimetric assays. Serum lactate dehydrogenase (LDH) was also measured as an index of generalized AAP-induced organ toxicity. To evaluate the extent of cellular oxidative stress in liver homogenates, the unsaturated aldehyde by-products of lipid peroxidation, HNE and malondialdhyde (MDA), were determined according to a modification of the Gerard-Monnier et al. method^27. In addition, soluble thiol contents were measured in homogenates according to LoPachin et al.^44.

CC(=O)N[C@@H](CS)C(=O)O [NAC, N-acetylcysteine]
protection from APAP-induced lethality (survival) (i.p. 2.40 mmol/kg, 20 min after (+20) APAP): not protective
protection from APAP-induced lethality (survival) (i.p. 2.40 mmol/kg, 20 min before oral APAP 500 mg/kg, 7 day period): ineffective; also recorded: not protective
protection from APAP-induced lethality (survival) (i.p. 2.40 mmol/kg, 60 min after (+60) APAP): partially improved the survival
biochemical indices of hepatocyte death (plasma ALT, AST, LDH) and oxidative stress (liver thiol loss, unsaturated aldehyde content) (i.p. pretreatment, oral APAP): but not NAC, prevented APAP-induced liver cell death
histopathology: liver centrilobular necrosis (i.p. pretreatment, oral APAP): did not stop this damage
dose-dependency of protection from APAP-induced lethality (i.p. pretreatment, 2-ACP 0.80-2.40 mmol/kg, NAC 4.80-7.20 mmol/kg): not protective and instead accelerated the rate of APAP lethality
protection from APAP-induced lethality (survival) (oral gavage 2.40 mmol/kg, 20 min before oral APAP): complete protection

Source: patent publication US10104882B2, “Methods and compositions for preventing and treating electrophile-mediated toxicities” (priority 2013, dated 2018)
